Experimental findings from publication PMC12836348, “Alanine Mutagenesis Identifies Specific Amino Acids of Nemertide Alpha‑1 Activity and Its Binding to Target Receptors” (Journal of Natural Products, 2025) are described below.

By UniProt entry, the sequences of proteins in these tests, tags left out.
UniProt Q9UQD0, whole entry: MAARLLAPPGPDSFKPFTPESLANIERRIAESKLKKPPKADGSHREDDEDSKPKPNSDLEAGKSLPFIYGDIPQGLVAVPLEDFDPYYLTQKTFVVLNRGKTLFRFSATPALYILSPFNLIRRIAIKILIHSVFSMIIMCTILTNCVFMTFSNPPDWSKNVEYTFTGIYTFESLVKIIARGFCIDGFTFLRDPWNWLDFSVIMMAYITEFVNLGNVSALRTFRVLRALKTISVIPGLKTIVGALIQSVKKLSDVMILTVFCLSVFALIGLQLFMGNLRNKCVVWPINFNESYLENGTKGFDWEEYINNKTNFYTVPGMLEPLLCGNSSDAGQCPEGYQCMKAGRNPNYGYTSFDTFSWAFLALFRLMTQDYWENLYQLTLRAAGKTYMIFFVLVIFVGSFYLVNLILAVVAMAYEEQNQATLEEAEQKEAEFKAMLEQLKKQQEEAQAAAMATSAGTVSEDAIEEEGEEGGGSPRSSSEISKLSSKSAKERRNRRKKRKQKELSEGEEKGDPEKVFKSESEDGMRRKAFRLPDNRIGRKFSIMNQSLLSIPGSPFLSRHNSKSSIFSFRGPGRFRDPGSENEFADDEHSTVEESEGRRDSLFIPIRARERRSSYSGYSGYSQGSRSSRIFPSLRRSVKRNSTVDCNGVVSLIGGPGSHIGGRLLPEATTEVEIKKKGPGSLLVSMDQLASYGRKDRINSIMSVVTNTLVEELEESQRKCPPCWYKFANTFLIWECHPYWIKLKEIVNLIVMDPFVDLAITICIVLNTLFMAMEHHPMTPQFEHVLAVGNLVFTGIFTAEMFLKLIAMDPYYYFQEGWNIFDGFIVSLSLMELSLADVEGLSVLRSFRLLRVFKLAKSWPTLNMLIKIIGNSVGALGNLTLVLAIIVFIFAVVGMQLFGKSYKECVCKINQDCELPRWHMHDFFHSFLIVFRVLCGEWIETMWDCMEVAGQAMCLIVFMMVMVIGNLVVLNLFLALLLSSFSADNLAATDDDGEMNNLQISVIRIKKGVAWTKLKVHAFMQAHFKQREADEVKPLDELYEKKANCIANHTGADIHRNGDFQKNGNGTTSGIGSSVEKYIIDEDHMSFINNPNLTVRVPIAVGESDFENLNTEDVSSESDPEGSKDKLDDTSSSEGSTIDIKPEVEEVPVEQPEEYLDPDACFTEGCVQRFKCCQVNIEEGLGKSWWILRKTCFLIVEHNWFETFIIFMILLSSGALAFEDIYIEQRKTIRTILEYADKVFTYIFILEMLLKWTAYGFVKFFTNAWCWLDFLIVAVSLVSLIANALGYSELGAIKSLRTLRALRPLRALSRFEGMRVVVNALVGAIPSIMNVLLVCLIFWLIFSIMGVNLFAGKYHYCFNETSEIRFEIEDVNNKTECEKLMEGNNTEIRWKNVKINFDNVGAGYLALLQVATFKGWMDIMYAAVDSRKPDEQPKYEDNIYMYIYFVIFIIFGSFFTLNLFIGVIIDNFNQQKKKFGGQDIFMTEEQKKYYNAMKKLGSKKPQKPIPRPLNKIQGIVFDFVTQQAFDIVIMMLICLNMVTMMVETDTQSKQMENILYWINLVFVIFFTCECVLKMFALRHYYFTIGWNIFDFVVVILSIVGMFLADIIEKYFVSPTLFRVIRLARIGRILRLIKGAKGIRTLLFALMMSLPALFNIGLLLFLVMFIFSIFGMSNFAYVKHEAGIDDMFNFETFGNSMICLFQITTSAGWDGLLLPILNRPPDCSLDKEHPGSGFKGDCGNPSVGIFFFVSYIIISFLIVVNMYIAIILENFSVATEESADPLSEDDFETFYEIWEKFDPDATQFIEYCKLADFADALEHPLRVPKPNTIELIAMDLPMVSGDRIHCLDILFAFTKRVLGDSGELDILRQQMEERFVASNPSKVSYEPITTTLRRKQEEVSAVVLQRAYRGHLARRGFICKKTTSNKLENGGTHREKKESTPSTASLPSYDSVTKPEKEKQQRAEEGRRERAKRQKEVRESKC

For this experiment, the target named is T1, hNaV1.6 (Homo sapiens, UniProt Q9UQD0).
T1 construct: expressed in transfected cells; host or cells: Xenopus laevis oocytes (cRNA injection)
As to the kind of experiment: Two-electrode voltage clamp, Nav1.6 in Xenopus laevis oocytes. It is filed as cell-based. Also noted: key to effect on Nav1.6: “+” means tested and produced effect; “–“ means tested but no effect. The note with it: S12A at 5 μM; Xenopus oocytes, n ≥ 3. Here is the method:
For the expression of NaV channels (hNav1.1, rNaV1.2, rNaV1.3, rNaV1.4, hNaV1.5, hNaV1.6, hNav1.7, and the insect channel BgNaV1) in Xenopus laevis oocytes, the linearized plasmids were transcribed using the T7 or SP6 mMESSAGE-mMACHINE transcription kit (Ambion, Carlsbad, CA, USA). The harvesting of stage V and VI oocytes from an anaesthetized female X. laevis frog was described previously. , Oocytes were injected with 50 nL of cRNA at a concentration of 1 ng/nL using a microinjector (Drummond Scientific, Broomall, PA, USA). The oocytes were incubated in a solution containing 96 mM NaCl, 2 mM KCl, 1.8 mM CaCl2, 2 mM MgCl2, and 5 mM HEPES (pH 7.4), supplemented with 50 mg/L gentamycin sulfate. Two-electrode voltage-clamp recordings were performed at room temperature (18–22 °C) using a Geneclamp 500 amplifier (Molecular Devices, Downingtown, PA, USA) controlled by a pClamp data acquisition system (Axon Instruments, Union City, CA, USA). Whole-cell currents from oocytes were recorded 1–4 days after injection. The bath solution composition was 96 mM NaCl, 2 mM KCl, 1.8 mM CaCl2, 2 mM MgCl2, and 5 mM HEPES (pH 7.4). Voltage and current electrodes were filled with 3 M KCl. The resistances of both electrodes were kept between 0.8 and 1.5 MΩ. The elicited Nav channel currents were filtered at 1 kHz and sampled at 20 kHz by using a four-pole low-pass Bessel filter. Leak subtraction was performed using a −P/4 protocol. For the electrophysiological analysis of toxins, a series of protocols was applied from a holding potential of −90 mV with a start-to-start interval of 0.2 Hz. Sodium current traces were evoked by 100 ms depolarizations to V max (the voltage corresponding to maximum sodium current in control conditions).
To assess the concentration–response relationships, data were fitted with the Hill equation: y = 100/[1 + (EC50/[toxin])^ h ], where y is the amplitude of the toxin-induced effect (y = I 30 ms/I peak where I 30 ms is the current value at 30 ms in the presence of toxin and I peak is the peak current amplitude in control conditions), EC50 is the toxin concentration at half-maximal efficacy, [toxin] is the toxin concentration, and h is the Hill coefficient. Potassium and calcium currents were evoked by a 500 ms depolarization to the voltage corresponding to the maximal activation of the channels in control conditions from a holding potential of −90 mV. Elicited currents were sampled at 1 kHz and filtered at 0.5 kHz. For nAChR experiments, the oocytes were clamped at a holding potential of −70 mV and continuously superfused with ND96 via gravity-fed tubes at 0.1–0.2 mL min^–1, with 5 min incubation times for the bath-applied peptides. ACh was applied via gravity-fed tubes until a peak current amplitude was obtained (1–3 s), with 1–2 min washout periods between applications. The nAChR were gated by a particular time duration pulse of ACh for the respective nAChR subtype at 2 mL min^–1. Data were sampled at 500 Hz and filtered at 200 Hz. ASIC1a currents were measured in ND96 solutions at a pH of 7.4 and 4.5, at a holding potential of −70 mV during 400 s, and the data were filtered at 20 Hz. EnaC currents were measured by clamping oocytes at a holding potential of −60 mV and perfusing with low- (1 mM) and high- (96 mM) sodium ND96. Opioid currents were measured by clamping the potential to −70 mV and changing the perfusion solution from ND96 to high-potassium (HK) solution composed of 96 mM KCl, 2 mM NaCl, 1 mM MgCl2, 1.8 mM CaCl2, and 5 mM HEPES, with a final pH of 7.5. The HK-evoked increase in inward K^+ currents represents a “basal” K^+ current (IK, basal). In the presence of HK, 0.2 μM morphine was applied to oocytes and then washed out by HK. TRPV1 and TRPA1 currents were continuously monitored in a perfusing ND96 solution, following a protocol at −90 mV for 400 s. The sampling rate was set at 100 Hz, and the signals were filtered at 20 Hz. One μM capsaicin and 10 μM capsazepine were used for TRPV1. […]
(In two-electrode clamp one electrode senses voltage and the other passes current.)

Take `CC[C@H](C)[C@@H]1NC(=O)[C@@H](NC(=O)CN)CSSC[C@@H]2NC(=O)[C@@H]3CSSC[C@@H](C(=O)N[C@@H](CC(N)=O)C(=O)N4C[C@H](O)C[C@H]4C(=O)N4C[C@H](O)C[C@H]4C(=O)N[C@@H](CC(N)=O)C(=O)N[C@@H](CCC(N)=O)C(=O)O)NC(=O)[C@H](CCCCN)NC(=O)[C@H](Cc4ccccc4)NC(=O)[C@H](CC(N)=O)NC(=O)[C@H](Cc4c[nH]c5ccccc45)NC(=O)CNC(=O)[C@H](CSSC[C@H](NC(=O)[C@H](Cc4ccccc4)NC(=O)[C@H](CO)NC(=O)CNC(=O)[C@H]([C@@H](C)O)NC(=O)[C@H](C)NC1=O)C(=O)N[C@@H]([C@@H](C)O)C(=O)N[C@@H](CC(C)C)C(=O)N[C@@H](C)C(=O)N[C@@H](CCCCN)C(=O)NCC(=O)N3)NC(=O)[C@H](CC(N)=O)NC(=O)[C@H](CCCCN)NC(=O)[C@H]([C@@H](C)O)NC2=O` [Peptide S12A]: the “effect on Nav1.6” value is recorded as “–”.
